Reference: ChEMBL document CHEMBL5579817, “Recent advances in targeting histone H3 lysine 36 methyltransferases for cancer therapy” (Eur J Med Chem, 2024)

Target: T1, Histone-lysine N-methyltransferase NSD3 (Homo sapiens, UniProt Q9BZ95)
T1 sequence (Q9BZ95 whole entry): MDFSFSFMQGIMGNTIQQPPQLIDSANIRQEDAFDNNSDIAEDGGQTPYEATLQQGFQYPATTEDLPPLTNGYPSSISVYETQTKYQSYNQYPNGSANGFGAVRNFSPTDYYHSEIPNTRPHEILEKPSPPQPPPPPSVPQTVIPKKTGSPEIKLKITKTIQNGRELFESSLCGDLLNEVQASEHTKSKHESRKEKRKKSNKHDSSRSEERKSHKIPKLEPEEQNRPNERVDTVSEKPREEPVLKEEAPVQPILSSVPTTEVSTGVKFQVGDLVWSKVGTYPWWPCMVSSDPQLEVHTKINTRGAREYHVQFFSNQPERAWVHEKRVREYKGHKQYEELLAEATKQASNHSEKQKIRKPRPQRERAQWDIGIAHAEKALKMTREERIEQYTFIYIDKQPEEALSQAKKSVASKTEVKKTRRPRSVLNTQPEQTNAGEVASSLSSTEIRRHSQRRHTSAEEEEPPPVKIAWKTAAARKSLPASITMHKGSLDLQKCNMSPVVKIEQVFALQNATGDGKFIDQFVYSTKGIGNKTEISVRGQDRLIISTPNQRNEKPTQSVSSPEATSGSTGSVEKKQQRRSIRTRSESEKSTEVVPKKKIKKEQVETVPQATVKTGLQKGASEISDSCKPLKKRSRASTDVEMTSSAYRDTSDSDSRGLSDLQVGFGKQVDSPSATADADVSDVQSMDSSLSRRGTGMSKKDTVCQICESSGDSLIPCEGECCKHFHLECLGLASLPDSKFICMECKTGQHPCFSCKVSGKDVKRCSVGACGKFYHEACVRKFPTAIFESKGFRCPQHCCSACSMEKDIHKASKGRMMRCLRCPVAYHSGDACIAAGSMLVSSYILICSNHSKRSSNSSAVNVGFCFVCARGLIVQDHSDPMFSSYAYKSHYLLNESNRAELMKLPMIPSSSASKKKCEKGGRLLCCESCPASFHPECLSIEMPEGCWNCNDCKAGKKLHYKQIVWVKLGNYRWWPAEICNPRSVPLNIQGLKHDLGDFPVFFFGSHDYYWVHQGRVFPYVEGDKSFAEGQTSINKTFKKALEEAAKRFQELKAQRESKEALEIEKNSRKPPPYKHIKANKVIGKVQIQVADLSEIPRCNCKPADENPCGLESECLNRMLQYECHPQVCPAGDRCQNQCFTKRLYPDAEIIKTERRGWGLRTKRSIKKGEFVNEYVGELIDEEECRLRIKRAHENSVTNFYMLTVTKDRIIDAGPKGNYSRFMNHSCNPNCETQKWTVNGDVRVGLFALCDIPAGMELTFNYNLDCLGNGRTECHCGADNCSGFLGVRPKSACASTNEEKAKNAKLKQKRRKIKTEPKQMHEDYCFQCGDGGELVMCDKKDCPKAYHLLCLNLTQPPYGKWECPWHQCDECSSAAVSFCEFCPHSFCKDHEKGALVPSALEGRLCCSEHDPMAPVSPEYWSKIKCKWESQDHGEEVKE
Assay: Binding affinity to human NSD3 PWWP1 domain (247 to 398 residues) assessed as dissociation constant by SPR analysis

Kd: 445 nM
SMILES: Cc1cc(CN)cc(C)c1-c1ncn(C)c1-c1ccnc2cc(F)ccc12
